Test results: article PMC3075617 (Cell, 2011)
Read-outs that look alike come from different tables or passages of the source.

Experiments:
[1] = target: ^flC18-58 (18-58 with a cysteine added near the N-terminus, modified by a fluorophore) (UniProt P00698); assay: fluorescence polarisation
[2] = target: ^flC18-58 (18-58 with a cysteine added near the N-terminus, modified by a fluorophore) (UniProt P00698); assay: fluorescence polarisation; remark: listed apart in the source

Kd [1]: 12 µM | Kd [2]: 0.88 µM
B1: DegP^S210A active-site mutant (enzyme, Escherichia coli, UniProt P0C0V0 27-474, looked up)
chain: AETSSATTAQQMPSLAPMLEKVMPSVVSINVEGSTTVNTPRMPRNFQQFFGDDSPFCQEGSPFQSSPFCQGGQGGNGGGQQQKFMALGSGVIIDADKGYVVTNNHVVDNATVIKVQLSDGRKFDAKMVGKDPRSDIALIQIQNPKNLTAIKMADSDALRVGDYTVAIGNPFGLGETVTSGIVSALGRSGLNAENYENFIQTDAAINRGNAGGALVNLNGELIGINTAILAPDGGNIGIGFAIPSNMVKNLTSQMVEYGQVKRGELGIMGTELNSELAKAMKVDAQRGAFVSQVLPNSSAAKAGIKAGDVITSLNGKPISSFAALRAQVGTMPVGSKLTLGLLRDGKQVNVNLELQQSSQNQVDSSSIFNGIEGAEMSNKGKDQGVVVNNVKTGTPAAQIGLKKGDVIIGANQQAVKNIAELRKVLDSKPSVLALNIQRGDSTIYLLMQ
